Assay results published in patent US20200345863A1, “LIGAND-DRUG-CONJUGATE COMPRISING A SINGLE MOLECULAR WEIGHT POLYSARCOSINE” (priority 2017, published 2020).

Assay: Hydrophobic interaction chromatography (HIC), apparent hydrophobicity of conjugates
Format: physicochemical
Conditions: Tosoh TSK-GEL BUTYL-NPR column, 25° C., gradient 0% B to 100% B in 10 min

Substance: Human Albumin
- HIC retention time: 2.5 min
